Results published in US20240350589A1, “IL-2/IL-15RBETAGAMMA AGONIST COMBINATION WITH ANTIBODY-DRUG CONJUGATES FOR TREATING CANCER” (Cytune Pharma, priority 2021, published 2024).

Key:
[1] = tested on: AGS tumor cell line; assay: In vitro killing of AGS tumor cells, AnnexinV/DAPI flow cytometry; format: cell-based, human; settings: Kadcyla 5, 7, 8, 10 μg/ml, 72 h
Description: Similar settings of the in vitro experiments described in Example 2 and Example 4 were used to screen for synergy to other ICD-inducing agents/modalities (selected standard of care chemotherapies “SoC”: doxorubicin or cisplatin).

[2] = tested on: AGS tumor cell line; assay: Expression of NK cell ligands on early apoptotic AGS cells (flow cytometry); format: cell-based, human; settings: 72 h
Experimental: Similarly, the expression of NK cell ligands CD112, CD155 and ULBP3 and ULBP2/5/6, as well as ULBP1, was determined by flow cytometry on these early apoptotic (AnnexinV^+/DAPI^−) cell populations using ULBP-2/5/6 (Biocompare, USA), CD155 (Biolegend, USA), Nectin-2/CD112 (R&D Systems, USA), ULBP-1 (Biocompare, USA) and ULBP-3 antibody (Biocompare, USA). […] (see FIG. 4).

[3] = tested on: huHER2/EMT-6 tumors; assay: Orthotopic huHER2/EMT-6 breast cancer model in vivo; design: species or system Balb/c AnN mice; settings: RLI-15 1 mg/kg s.c. days 15-18; Kadcyla 15 mg/kg i.v. days 0 and 7
Experimental: The study was initiated when the initial mean tumor volume among individual groups reached 140 mm^3. […] RLI-15 was administered in 4 sequential doses on study days 15-18 to amplify the numbers and activate immune cells. The antitumor efficacy was evaluated on the level of absolute tumor volume change. Safety has been monitored by body weight loss in individual animals. HER2 expression in individual tumors was analyzed using HercepTest™ (Dako) at the endpoint to map for potential heterogeneity of the model (staining was performed according to the instructions given by the manufacturer).

[4] = tested on: CD3-CD56+ cells (NK cells) of human PBMCs; assay: In vitro activation of NK cells: RLI-15 treated PBMCs co-incubated with treated AGS tumor cells; format: cell-based; settings: PBMCs +/- 2.5 ng/ml RLI-15 72 h, 10:1, 4 h
Experimental: As controls non-treated tumor cells were incubated with non-treated PBMC (KadNT in the ADC group) and non-treated tumor cells were incubated with RLI-15 treated PBMC (KadNT in the RLI+ADC group).

[5] = tested on: AGS tumor cell line; assay: Cell surface exposure of ICD markers CRT, HSP70, HSP90 on early apoptotic AGS cells (flow cytometry); format: cell-based, human
Experimental: The cells are collected and washed twice with PBS. The cells are then incubated for 30 min with primary antibody diluted in cold blocking buffer (2% fetal bovine serum in PBS), followed by washing and incubation with an […] monoclonal secondary antibody in blocking solution. Each sample was then analyzed using a FACScan Aria (BD Bioscience). Cell surface expression of HSP70, HSP90 and CRT is analyzed on non-permeabilized annexin V-positive/DAPI-negative cells.
The expression of ICD markers Hsp70, Hsp90 and CRT as well as NK cells ligands was measured by flow cytometry on these early apoptotic (AnnexinV^+/DAPI^−) cell populations using anti-calreticulin antibody (Abcam, USA), anti-HSP70 (R&D Systems, USA), anti-HSP90 (Enzo Life Sciences, USA). APC AffiniPure F(ab′)2 Fragment Goat Anti-Mouse (Jackson ImmunoResearch) was used as a secondary antibody.

[6] = early apoptotic cells, Kadcyla 5-10 μg/ml, 72 h

“Kadcyla: antibody-drug conjugate of humanized monoclonal antibody trastuzumab directed to HER2 covalently linked to mertansine/DM1” was tested, and the “early apoptotic (AnnexinV+/DAPI-) cell population” value [1] was “increasing populations of AnnexinV^+/DAPI^− cells”, the “Kadcyla concentration at which maximum expression was reached, CD155” value [2] was 7 µg/kg and the “Kadcyla concentration at which maximum expression was reached, ULBP3 and ULBP2/5/6” value [2] was 8 µg/kg. The “expression of NK cell ligands CD112, CD155, ULBP3 and ULBP2/5/6” value ([2]; Kadcyla 5-10 μg/ml) was “increasing expression”, the “expression of ULBP1” value ([2]; Kadcyla 5-10 μg/ml) was “did not show a significant change” and the “tumor volume at the end of the study” value [3] was “intermediate tumor volume increase”. The “proliferation of CD3-CD56+ NK cells” value ([4]; AGS cells +/- Kadcyla 72 h) was “no subsequent proliferation”, the “% of IFNγ+ NK cells” value ([4]; AGS cells treated with Kadcyla 5-10 μg/ml 72 h) was “up to 10%” and the “% of calreticulin, HSP70 and HSP90 positive cells, comparison of agents” value ([5]; Kadcyla 7 μg/ml 72 h vs doxorubicin 1.2 μM, cisplatin 100 μM 48 h) was “more efficient”. The “% of ICD marker positive cells with increasing concentrations of Kadcyla” value [5, 6] was “this trend was stronger”, the “expression of ICD markers Hsp70, Hsp90 and CRT compared to non-treated cells” value [5, 6] was “strong increase of ICD markers” and the “mean fluorescence intensity of ICD markers with increasing concentrations of Kadcyla” value [5, 6] was “no or only a weak trend”. For the same substance, the “fraction of tumor cells undergoing ICD” value ([5]; tumor cell line with low to intermediate Her-2 expression) was “large fraction of tumor cells undergoing ICD”.
